Laboratory results taken from ChEMBL document CHEMBL1144431, “6-Hydroxy-1,2,3,4-tetrahydro-isoquinoline-3-carboxylic acid mimics active conformation of tyrosine in opioid peptides” (Bioorg Med Chem Lett, 2005).

Sequences of proteins named here, by UniProt entry; tags and fusion partners are left off.
UniProt P33535, whole entry: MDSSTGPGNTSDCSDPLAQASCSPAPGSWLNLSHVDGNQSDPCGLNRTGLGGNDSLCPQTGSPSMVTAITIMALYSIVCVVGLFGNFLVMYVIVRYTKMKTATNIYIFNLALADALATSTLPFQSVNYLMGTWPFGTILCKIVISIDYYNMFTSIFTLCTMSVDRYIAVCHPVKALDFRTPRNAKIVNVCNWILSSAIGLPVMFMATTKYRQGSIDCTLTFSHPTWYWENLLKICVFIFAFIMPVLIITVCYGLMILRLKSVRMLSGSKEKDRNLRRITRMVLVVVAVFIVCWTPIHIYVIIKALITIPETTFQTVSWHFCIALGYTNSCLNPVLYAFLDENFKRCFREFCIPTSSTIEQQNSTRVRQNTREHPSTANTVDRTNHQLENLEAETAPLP

Molecular target: Mu-type opioid receptor (Rattus norvegicus, UniProt P33535)
Assay: Inhibition of [3H]naloxone binding to rat brain homogenate Opioid receptor mu

C[C@@H](NC(=O)[C@@H](N)Cc1ccc(O)cc1)C(=O)N[C@@H](Cc1ccccc1)C(=O)N[C@@H](Cc1ccccc1)C(N)=O
Ki: 5.1 nM
